{"source": "patent US11773146B2", "about": "“Disruption of the WAVE3 protein complex for suppression of invasion and metastasis” (UNIVERSITY OF GEORGIA RESEARCH FOUNDATION, INC., priority 2015, dated 2023)", "system": "MDA-MB-231 and Hs578T cells", "test": "Cell proliferation with RAC1 inhibitor", "type": "cell-based", "settings": "range of 1-50 μM", "from_the_text": "MDA-MB-231, Hs578T and T47D breast cancer cell lines were obtained directly from American Type Culture Collection (Rockville, Md.). MDA-MB-231 and T47D and have been verified using SNP-CGH (Teng Y, et al. Int J Cancer 2011 129:2825-2835) for characteristic cytogenetic changes. The ATCC Cell Authentication Testing service confirmed the identity of Hs578T using STR DNA fingerprinting analysis. Standard cell culture, transient transfections, RT-PCR, western blotting, immunoprecipitation (IP), flow cytometry, Biotin-Avidin pulldown, lentiviral transduction, cell proliferation and Transwell invasion assays were carried out as described previously (Teng Y, et al. Int J Cancer 2011 129:2825-2835; Teng Y, et al. J Biol Chem 2012 287:10051-10059; Teng Y, et al. Carcinogenesis 2013 34:1994-1999).", "note": "“Also recorded” adds a separate entry of the source."}
{"compound": "CCN(CC)CCCC(C)Nc1nc(C)cc(Nc2ccc3nc(C)cc(N)c3c2)n1", "note": "(stereo not shown) [NSC23766]", "values": [{"measurement": "cell proliferation", "result": "without affecting cell proliferation; also recorded: does not affect proliferation"}]}
